Literature values in patent US12714725B2, “Stabilization of selenite in a nutritional solution by dissolved oxygen” (BAXTER INTERNATIONAL INC., priority 2019, dated 2026).

Conditions: cited from earlier work

| Substance | Chemical form; Solubility in water |
| --- | --- |
| iron chloride [Fe] | 920 mg/mL |
| manganese chloride [Mn] | 634 mg/mL |
